From US7745489B2, “Compositions and methods for inhibition of phospholipase A2 mediated inflammation” (The Regents of the University of California, priority 2002, dated 2010)

Assays:
spontaneous movement = test: Spontaneous movement after IT injection, automated flinch counting device without formalin; conditions: for Effect on spontaneous movement / normal motor function: intrathecal administration, result in words
[1] = system: formalin induced flinching; test: Formalin induced flinching; assay type: in vivo, rat; conditions: IT pretreatment, versus IT vehicle, result in words
[2] = system: carrageenan-induced thermal hyperalgesia; test: Carrageenan-induced thermal hyperalgesia, paw withdrawal latency; assay type: in vivo, rat; conditions: 300 μg IT, pretreatment -10 min; T=0 to 180 min; vehicle control 77±4

CCCCC/C=C\C/C=C\C/C=C\C/C=C\CCCCOP(=O)(F)OC (stereo not drawn)
Effect on spontaneous movement / normal motor function (spontaneous movement): no effect on normal motor function
Effect on spontaneous movement / normal motor function (spontaneous movement; listed as MAPF): no statistically significant difference
Number of counts (spontaneous movement; spontaneous movement during 60 minutes, started 10 minutes after IT injection, no formalin): 311 ± 40 counts
Formalin flinching Phase 1 ([1]; Phase 1 (0-9 min)): not significantly affected
Formalin flinching Phase 2 ([1]; Phase 2 (10-60 min)): statistically significant reduction
Hyperalgesic index [2]: 25±11
